## scFv variants of Ab-14 (light chain) against a SARS-CoV-2 spike peptide

Target peptide (SARS-CoV-2 spike, HR2 region): PDVDLGDISGINAS

Parent scFv Ab-14: VH joined to VL by a (GGGGS)3 linker. Changes lie in the light chain CDRs alone.
VH: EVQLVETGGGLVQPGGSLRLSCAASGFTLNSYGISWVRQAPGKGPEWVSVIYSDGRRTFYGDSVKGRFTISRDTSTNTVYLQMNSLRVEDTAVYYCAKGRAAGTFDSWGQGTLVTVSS
VL: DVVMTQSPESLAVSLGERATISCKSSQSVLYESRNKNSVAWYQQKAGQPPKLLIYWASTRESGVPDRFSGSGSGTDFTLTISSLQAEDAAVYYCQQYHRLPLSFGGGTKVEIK

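The parent was found by panning a naive human phage display library on the peptide. These sequences belong to a second round, designed from the earlier measurements on random variants of the parent. Several design methods are mixed in this list. Affinity was read by AlphaSeq, a pooled yeast mating assay with surface-displayed partners. After mating in shaken culture at 30 °C for 16 h, diploids were selected and their barcode pairs sequenced. Each replicate has its own calibration line, from reference interactions of the BCL2 family. Mating was done six times.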

Variants are written as CDR1, CDR2 and CDR3 of the light chain (limits as in the source). Parent: KSSQSVLYESRNKNSVA, WASTRES, QQYHRLPLS. This list holds designs with at most six substitutions. Each Kd is an estimate from the mating assay, the geometric mean of the replicates in which the pair was seen; lower is stronger. Where no diploid with the target was found in any replicate, the entry reads "nd": below detection, most likely a poor binder, though not proof of it.

CDR-L1	CDR-L2	CDR-L3	Kd	replicates with signal
KQSQSVLGESRNKNSVA	DASTRSS	QQYHRLPLS	2.1 nM	6 of 6
KLEQSVLYESRNKNSVA	WASTRES	QQYHRLPLS	3.0 nM	6 of 6
KSSQSVLYESRNKNHVA	WASTRES	DQYHILPLS	36 nM	1 of 6
KSSQSVLYEDRNKNSVA	WASTRFS	QQYHRLPLG	70 nM	4 of 6
KLSMSVLYESRNKNSVA	NASTREE	QQYHRLPLS	450 pM	6 of 6
HSSPSVLYESRNKNNVA	NASTRES	QQYHRLPLS	380 pM	6 of 6
KQSQSVLGESRNCNSVA	DASTRES	QQYVRLPLS	3.3 nM	6 of 6
KVVQSVLYESRNKNSVA	DASTRES	QQYHRLPLS	530 pM	6 of 6
KLSQSVLGEQRNKNSVA	DISTRES	QQYHRLPLS	780 pM	6 of 6
KSSQSDLYEDRVKNSVA	GAQTRES	QQYHRLPLS	3.4 nM	6 of 6
KQSQEYLYESRNKNSVA	DASTRES	QQYHRLPLS	1.7 nM	6 of 6
KSLQSELYESRNKNSVA	HASTREQ	QQYHRLPLS	1.2 nM	6 of 6
KISQSFLMESRNKNSVA	NASTRIW	QQYHRLPLS	2.5 nM	6 of 6
KLEQSVMYESRNKNSVA	NASTRES	QQYHRLPLS	360 pM	6 of 6
KLQQSWEYESRNKNSVA	NASTRES	QQYHRLPLS	1.3 nM	6 of 6
KLQQSVPYESRNKNSVA	NASTRMS	QQYHRLPLS	1.7 nM	6 of 6
KLMQSVLYESRNKNSVA	NASTRSS	QQYHRLPLS	1.3 nM	6 of 6
KFSQSELYESRNKNSVA	NGSTRES	QQYHRLPLS	280 pM	6 of 6
HWSQSGLYEEQNKNSVA	WASTRES	QVYHRLPLS	nd	0 of 6
KLSQSVWYESRNKNSVA	NASQRES	QQYHRLPLS	1.2 nM	6 of 6
KFSQSVLLESRTKNSVA	NASTRES	QQYHRLPLS	290 pM	6 of 6
KSSQSVLQESRNKNSFA	GASTRES	QCYHRLPLS	3.1 nM	6 of 6
KLSQSVEYESRDKNSVA	DANTRLS	QQYHRLPLS	1.6 nM	6 of 6
KQSQSVLYESRNKNSVA	DASTRES	QQYHRLPLT	2.7 nM	6 of 6
KMSQSVLYESCNKNSVA	SASTRES	QQYHRLPLS	3.6 nM	6 of 6
KSSWSVLPESRNKNSVA	DASTRES	QQYHRLPLS	920 pM	6 of 6
KISQSVLKESRNKNSVA	WASTRES	QQYHRLPLS	14 nM	6 of 6
KSSQSFLYESTNKNSVA	WGSTREK	QQYHRLPLS	95 nM	5 of 6
LSSISELYESPNKNSVA	EASTRES	QQYHRLPLS	3.0 nM	6 of 6
KLQQSNLYESRNKNSVA	NASTRES	QQYHRLPLS	1.4 nM	6 of 6
KSSYSVLYESRNKNSVA	WASTRES	FQGHRLPLS	nd	0 of 6
KSSISYEYESMNKNSVA	NGSTRES	QQYHRLPLS	17 nM	4 of 6
HQSPSVLYESRNKNSVA	NGSTREM	QQYHRLPLS	860 pM	6 of 6
KMFQSVLYESRNKNPVA	WASTRES	QQYHRLPLS	260 nM	1 of 6
KLSQSDLYESRNKNSVA	NASTREM	QQYHRLPLS	920 pM	6 of 6
KLEQGDLYESRNKNSVA	GASTRES	QQYHRLPLS	240 pM	6 of 6
KIEQSELYESRNKNSVA	NASQRES	QQYHRLPLS	310 pM	6 of 6
KISQSDLYESRNKNSVA	NASTRES	QQYHRLPLS	2.5 nM	6 of 6
KQSQSVLGEQRNKNSVA	DASTRES	QQYHRLPLS	540 pM	6 of 6
KLAQSVLYESRNKNSVA	NASTRMS	QQYHRLPLS	1.2 nM	6 of 6
KSSQSVLYESRNKNSVA	WASTHES	QQYHRLPLS	21 µM	1 of 6
KSSESVLYESRNFNSVA	WASTRES	QQYHRLPLS	34 nM	2 of 6
KMSQSVLYESRNKNNVA	EASTRES	QQYHRLPLS	670 pM	6 of 6
KLRQSTLYESRNANSVA	NASTRES	QQYHRLPLS	410 pM	6 of 6
KQYPSYLYESRNKNSVA	QASTRES	QQYHRLPLS	1.8 nM	6 of 6
KSSQSVLYESMNKNSVA	EASTRMS	QQYHRLPLS	3.3 nM	6 of 6
KLSQSVLYESRNKNSVA	NASTRES	QQYHRLPLL	1.4 nM	6 of 6
KSSQSVLYESRNKNSVA	YASTRES	QGYHRLPLR	30 nM	3 of 6
KYPQGVLYESRNKNSVA	GASVRES	QQYHRLPLS	310 pM	6 of 6
KSSQSVLYESRNKNSVA	WANTRES	QHYHRLPLS	nd	0 of 6

The 3 strongest on average among those seen in every replicate, once more:

| CDR-L1 | CDR-L2 | CDR-L3 | Kd | replicates with signal |
|---|---|---|---|---|
| KLEQGDLYESRNKNSVA | GASTRES | QQYHRLPLS | 240 pM | 6 of 6 |
| KFSQSELYESRNKNSVA | NGSTRES | QQYHRLPLS | 280 pM | 6 of 6 |
| KFSQSVLLESRTKNSVA | NASTRES | QQYHRLPLS | 290 pM | 6 of 6 |

Of ten entries with the parent sequence, four were seen in most replicates (averages 2.2 nM to 240 nM), three in one and three in none, so single entries are noisy. Values of this round are not directly comparable with the first-round values of the same sequences. Empty control strains, which show no peptide, gave a signal in 4% of pairings with all light chain designs; the median was 430 nM and 95% of these signals were weaker than 38 nM. No background was subtracted. The authors' rule: three or more of the six replicates give a measured affinity, fewer mean a poor binder.

Reference: Li et al. 2023, doi:10.1038/s41467-023-39022-2. File: FLAb, binding data.